According to published antibiotic growth screens (doi:10.1038/s41589-023-01349-8):
This is one part of the list.

system: A. baumannii ATCC 17978; experiment: relative growth (fraction of control); higher = less inhibition; conditions: 50 µM

Compared with `O=C(N1CCOCC1)[C@@]1(CCS(=O)(=O)c2ccccc2)COC(c2ccc(OCCCO)cc2)=N1`, `[N-]=[N+]=Nc1ccccc1C[C@]1(C(=O)N2CCCCC2)N=C(c2ccc(OCCCO)cc2)O[C@H]1c1ccccc1` is higher in relative growth: 0.945 for the first, 1.11 for the second.

Compared with `CCCNC(C)C(=O)Nc1ccccc1C.Cl` (centres undefined), `O=C(O)CCc1nc2ccccc2[nH]1` is higher in relative growth: 0.958 for the first, 1.24 for the second.

Compared with `C[C@@H]1CN([C@@H](C)CO)C(=O)c2cc(C#CCC3CCCC3)cnc2O[C@H]1CN(C)C(=O)c1cnccn1`, `CCCC#Cc1ccc2c(c1)O[C@H](CN(C)C(=O)c1cnccn1)[C@H](C)CN([C@H](C)CO)S2(=O)=O` is higher in relative growth: 0.866 for the first, 0.989 for the second.

Compared with `C[C@@H]1CN([C@@H](C)CO)S(=O)(=O)c2ccc(C#Cc3cccc(F)c3)cc2O[C@@H]1CN(C)C(=O)CN1CCOCC1`, `C[C@H]1CN([C@@H](C)CO)S(=O)(=O)c2ccc(C#Cc3ccccc3F)cc2O[C@@H]1CN(C)CC1CCOCC1` is higher in relative growth: 0.933 for the first, 0.994 for the second.

Going from `Cc1noc(C)c1NC(=O)N(C)C[C@H]1Oc2ncc(C#CCN(C)C)cc2C(=O)N([C@H](C)CO)C[C@@H]1C` to `COc1cccc(S(=O)(=O)N(C)C[C@H]2Oc3cc(C#CCN(C)C)ccc3S(=O)(=O)N([C@H](C)CO)C[C@H]2C)c1`, the relative growth falls from 1.13 to 0.836.

Going from `COC(=O)[C@@H]1C(O)CC[C@H]2CN3CCc4c([nH]c5ccccc45)[C@@H]3C[C@@H]21` (some centres undefined) to `O=C(CN1CCOCC1)NCC[C@@H]1CC[C@@H](NC(=O)Nc2ccccc2)[C@H](CO)O1`, the relative growth falls from 1.08 to 1.05.

Compared with `NC(=O)c1cc[n+](CC2=C(C(=O)[O-])N3C(=O)[C@@H](NC(=O)Cc4cccs4)[C@H]3SC2)cc1`, `O=C(C[C@H]1CC[C@@H](NS(=O)(=O)c2ccccc2)[C@@H](CO)O1)NCc1ccncn1` is lower in relative growth: 1.06 for the first, 0.934 for the second.

Compared with `O=C1C(O)=C(O)C(=O)C(O)=C1O`, `NNC(=O)c1c(O)c2c([nH]c1=O)CCCC2` is lower in relative growth: 1.16 for the first, 0.887 for the second.

Compared with `Cc1ccccc1S(=O)(=O)N1C[C@@H](O)COC[C@H]2O[C@H](CC(=O)NCc3ccccc3Cl)CC[C@@H]21`, `Cc1ccc(S(=O)(=O)N[C@@H]2CC[C@H](CC(=O)NCc3ccc(Cl)c(Cl)c3)O[C@@H]2CO)cc1` is lower in relative growth: 0.886 for the first, 0.805 for the second.

Compared with `C[C@@H]1CN([C@@H](C)CO)S(=O)(=O)c2ccc(C#Cc3ccc(F)cc3)cc2O[C@H]1CN(C)S(=O)(=O)c1cn(C)cn1`, `CN(CC(=O)NC1CCCC1)S(=O)(=O)c1ccc2c(c1)c(=O)n(C)c(=O)n2C` is lower in relative growth: 1.1 for the first, 1.04 for the second.

First: COc1ccc2c(c1)c(CC(=O)OCC(=O)O)c(C)n2C(=O)c1ccc(Cl)cc1
Second: Cc1ccc(S[C@]2(C(=O)NCCCN(C)C)CC(=O)N(C3CCCCC3)[C@@H]2c2ccc(CO)cc2I)cc1
The relative growth of the first is higher: 1.24 for the first, 0.986 for the second.

First: COC(=O)c1cc(=O)n2ccccc2c1C#N
Second: O=c1[nH]c2ccccc2n2cnnc12
The relative growth of the first is lower: 1.03 for the first, 1.04 for the second.

Compared with `CC(C)CCCC(C)[C@H]1CCC2C3CC=C4CC(=O)CC[C@]4(C)C3CC[C@@]21C` (some centres undefined), `CC(C)c1c(O)ccc2c1CCC1C(C)(C)CCC[C@]21C` (some centres undefined) is lower in relative growth: 1.37 for the first, 1.01 for the second.

First: Cc1cc(C)nc(SCC(=O)NN)n1
Second: Nc1ccc(-n2cc(CCC(=O)NO)nn2)cc1
The relative growth of the first is lower: 1.01 for the first, 1.1 for the second.

Going from `Cc1cncc2cccc(S(=O)(=O)N[C@H]3CN[C@@H](COC(=O)NCCOCCOCCN)C3)c12` to `COc1ccc(S(=O)(=O)N[C@@H]2CC[C@@H](CCNC(=O)CN3CCOCC3)O[C@@H]2CO)cc1`, the relative growth rises from 1.03 to 1.04.

Going from `S=C1C=C(N2CCCCC2)C[C@H](c2ccc(Cl)cc2)S1` to `N=c1cc(N2CCCCC2)nc(N)n1OS(=O)(=O)O`, the relative growth rises from 0.642 to 1.05.

Compared with `NC1=NN(c2ccccc2)C(=O)C1`, `O=c1c(O)nnc2n1CCN2c1ccccc1` is higher in relative growth: 0.52 for the first, 0.873 for the second.

First: Nc1ncnc2c1ncn2[C@H]1CC[C@@H](CO)O1
Second: Cn1cnc(S(=O)(=O)N[C@H]2CC[C@@H](CC(=O)NCC3CC3)O[C@@H]2CO)c1
The relative growth of the first is lower: 1.04 for the first, 1.09 for the second.

First: OC[C@@H](O)[C@@H](O)[C@H](O)[C@@H](O)CO
Second: O=C(N/N=C/[C@@H](O)[C@H](O)[C@H](O)CO)c1ccccc1O
The relative growth of the first is higher: 1.1 for the first, 1.02 for the second.

First: CN1CCN(C(=O)C[C@H]2C[C@@H]3c4cc(NC(=O)c5ccc6c(c5)OCO6)ccc4O[C@@H]3[C@H](CO)O2)CC1
Second: Cc1ccc(S(=O)(=O)N[C@@H]2CC[C@@H](CCNC(=O)CN3CCOCC3)O[C@@H]2CO)cc1
The relative growth of the first is higher: 1.04 for the first, 0.993 for the second.

Going from `CCCCOC(=O)CSc1n[nH]c(=O)[nH]c1=O` to `CCCCCN(C)CCC(O)(P(=O)([O-])O)P(=O)(O)O.O.[Na+]`, the relative growth rises from 0.921 to 1.

Going from `O=C(C[C@H]1C=C[C@H](NC(=O)CN2CCOCC2)[C@@H](CO)O1)NC1CCCCC1` to `COc1ccc(S(=O)(=O)N[C@H]2C=C[C@@H](CC(=O)NCCc3ccncc3)O[C@@H]2CO)cc1`, the relative growth rises from 0.953 to 0.992.

Compared with `Cn1sc(=O)n(Cc2ccccc2)c1=O`, `Cc1nnc(=O)[nH]c1NNc1ccccc1` is higher in relative growth: 0.28 for the first, 0.745 for the second.

Compared with `O=C(O)CC1(n2cnnn2)CCSCC1`, `O=C(c1cccnc1)N1CCOCC1` is higher in relative growth: 1.07 for the first, 1.34 for the second.

Compared with `CC(C)=CC1C(C(=O)O)C1(C)C` (centres undefined), `C=C(C)C1=NC(C)(C)C[C@H](C)O1` is higher in relative growth: 0.907 for the first, 1.1 for the second.

Going from `OCC(S)CS` (centres undefined) to `Cl.NC[C@H](N)C(=O)O`, the relative growth falls from 1.76 to 0.851.

Going from `Cc1ccnn1-c1ccc(CN)cc1` to `CCOc1ccc(S(N)(=O)=O)cc1`, the relative growth falls from 1.07 to 1.

Going from `Cl.Cl.NCCc1c[nH]cn1` to `NCCOc1cccc(Cl)c1`, the relative growth rises from 0.961 to 0.984.

First: N=C(N)Nc1nc(CSCC/C(N)=N\S(N)(=O)=O)cs1
Second: NC(=O)C1(N2CCCCC2)CCN(CCCC(=O)c2ccc(F)cc2)CC1
The relative growth of the first is higher: 0.999 for the first, 0.974 for the second.

First: C[C@@H]1CC2C3C[C@H](F)C4=CC(=O)C=C[C@]4(C)[C@@]3(F)[C@@H](O)C[C@]2(C)[C@@]1(O)C(=O)COC(=O)C(C)(C)C (some centres undefined)
Second: C=CCNC(=O)[C@@H]1[C@H]2C(=O)O[C@H](c3ccccc3)[C@H](c3ccccc3)N2[C@H](c2ccc(OCCO)cc2)[C@@]12C(=O)Nc1ccc(C#CC3(O)CCCCCC3)cc12
The relative growth of the first is lower: 1.06 for the first, 1.15 for the second.

Compared with `C[C@@H](O)CN1C(=S)S[C@@H]2CS(=O)(=O)C[C@@H]21`, `CC(C)C[C@H](N)C(=O)O` is lower in relative growth: 0.953 for the first, 0.85 for the second.

Going from `Nc1nccs1` to `NC(=O)c1cccnc1`, the relative growth falls from 1.03 to 1.02.
